Results on 1 substance are retold here after patent publication US20050238634A1.

For this data set the following is noted: radioactivity of oral 3H-paclitaxel 9 mg/kg; cyclosporin dose 2 × 5 mg/kg oral.

Turning to cyclosporin E, the AUC0-24 is reported as 5.96 μg eq. hr/ml.
